From US20090060919A1 come the findings set out here.

Protein sequences, listed by entry. Tags and fused reporters are not part of them. Chains listed by the source or under a name are the forms on record and can include a tag or linker.
UniProt P01854, other isoform, or with tags, fused parts or gaps: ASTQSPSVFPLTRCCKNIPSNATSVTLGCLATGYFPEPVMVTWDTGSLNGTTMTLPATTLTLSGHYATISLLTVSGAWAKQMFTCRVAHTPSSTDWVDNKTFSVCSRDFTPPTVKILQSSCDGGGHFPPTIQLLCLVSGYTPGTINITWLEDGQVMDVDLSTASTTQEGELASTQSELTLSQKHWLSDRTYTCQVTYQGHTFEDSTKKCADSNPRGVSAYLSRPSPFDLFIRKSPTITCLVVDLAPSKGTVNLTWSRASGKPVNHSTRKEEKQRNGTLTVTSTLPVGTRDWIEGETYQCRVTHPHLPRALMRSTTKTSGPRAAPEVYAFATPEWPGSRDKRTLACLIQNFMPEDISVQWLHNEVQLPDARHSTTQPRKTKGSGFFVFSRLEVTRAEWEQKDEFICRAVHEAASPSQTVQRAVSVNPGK

The target in test [1] is human IgE (human) (UniProt P01854). In words: KinExA.
Test [2] addresses IgE in human serum (human) (UniProt P01854). In words: ELISA: free serum IgE captured on coated FcERI-Fc-His after mixing serum with antibody; same experiment.

Consider Xolair (Omalizumab) (antibody), for which, in test [1], the Kd was determined as 0.353 nM. Further, in test [2], the IC50 came to 57 nM.
